Results on 3 substances are retold here after PMC7801690, “Crystal structure of a thermophilic fungal cyanase and its implications on the catalytic mechanism for bioremediation” (Scientific Reports, 2021).

For the data set, the system named is N#CO. The experiment in a line: purified protein. The conditions noted are these: apparent Km; 0.05 to 3.0 mM potassium cyanate; bicarbonate-dependent.

A word on the Km: it is the substrate concentration at which the rate is half of its maximum. What is called kcat/Km is the second-order rate constant that governs catalysis at low substrate concentration. On to Tl-Cyn (Thermomyces lanuginosus; Y34A), for which the Km worked out at 400 ± 10 µM and the kcat/Km stood at 1.2e+08 M⁻¹ s⁻¹.

By kcat is commonly meant the maximal rate divided by the concentration of active sites. For Tl-Cyn (Thermomyces lanuginosus; A148V), the Km is 200 ± 7 µM, the kcat stood at 5720 s⁻¹ and the kcat/Km was determined as 2.93e+07 M⁻¹ s⁻¹.

Tl-Cyn (Thermomyces lanuginosus; E124D): the Km came out at 210 ± 3 µM, the kcat worked out at 5840 s⁻¹ and the kcat/Km turned out to be 2.79e+07 M⁻¹ s⁻¹.
